Results: patent publication EP1140925B1, “(3,4 DIHYDRO-2H-BENZO[1,4] OXAZINYL-METHYL)- 3-(1H-INDOL-3- YL)-ALKYL -AMINES” (Wyeth, priority 1999, dated 2000)

The chains behind the UniProt entries cited, without tags or fusion partners.
UniProt P31652, whole entry: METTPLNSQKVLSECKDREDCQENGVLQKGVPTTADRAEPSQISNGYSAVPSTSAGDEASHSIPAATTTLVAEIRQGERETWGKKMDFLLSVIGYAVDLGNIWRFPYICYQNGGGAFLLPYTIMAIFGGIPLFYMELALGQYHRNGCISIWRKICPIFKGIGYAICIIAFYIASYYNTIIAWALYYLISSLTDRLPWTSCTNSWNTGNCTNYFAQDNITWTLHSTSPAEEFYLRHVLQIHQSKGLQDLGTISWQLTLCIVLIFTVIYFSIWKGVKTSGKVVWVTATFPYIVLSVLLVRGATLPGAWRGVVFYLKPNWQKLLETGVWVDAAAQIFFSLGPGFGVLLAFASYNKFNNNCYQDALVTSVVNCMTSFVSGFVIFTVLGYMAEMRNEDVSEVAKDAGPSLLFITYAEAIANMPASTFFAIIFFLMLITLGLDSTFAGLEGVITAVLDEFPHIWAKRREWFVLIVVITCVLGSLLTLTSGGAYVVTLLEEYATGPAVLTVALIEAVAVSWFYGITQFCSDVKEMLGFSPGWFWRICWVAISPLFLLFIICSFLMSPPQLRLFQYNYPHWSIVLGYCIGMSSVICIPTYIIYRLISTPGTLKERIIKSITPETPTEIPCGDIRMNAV

Target: T1, serotonin transporter (Rattus norvegicus, UniProt P31652)
T1 construct: frontal cortical membranes prepared from male Sprague-Dawley rats; from tissue; host or cells: frontal cortex membranes of male Sprague-Dawley rats
Assay: Serotonin transporter affinity, 3H-paroxetine binding to frontal cortical membranes
Parameters: species or system Sprague-Dawley rats
Settings: 3H-paroxetine 0.1 nM, head also allows % Inh. @.1 µM, read-out: ST (Ki, nM, % Inh. @.1 µM)

- Ki: 23 nM
Substance: [3-(1H-Indol-3-yl)-propyl]-4-benzyl-3,4-dihydro-2H-benzo[1,4]oxazin-2-yl-methyl)-amine [Example 6]
